# The list shows a part of the results, in another mix than the full data. Active and inactive are the calls of the source.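 The calls were made as follows: active = nuclear translocation activity above 50% at 5 µM, with a well cell count of 50 or more; inconclusive = wells under 50 cells across six images, flagged as toxic; inactive = the rest.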
# Experiment: modulators of beta-catenin nuclear translocation, primary screen, imaging, HeLa cells, immunofluorescence, high-content (AID 1665);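 also: per-cell ratio of nuclear to cytoplasmic median beta-catenin stain intensity; plate controls were DMSO negative control for no effect and GSK-3 inhibitor IX positive control for full effect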
# Details: at 5 µM, active compounds read high
# How it was run: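 System: HeLa cells, endogenous beta-catenin; compound dosing: 5 µM primary single dose, 0.1% DMSO, 0.02–20 µM confirmation series; incubation: 24 h compound exposure at 37°C, 5% CO2; signal: beta-catenin immunofluorescence imaging with DAPI; evaluation: % activation, nuclear-to-cytoplasmic median beta-catenin signal ratio per cell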
row,Structure (SMILES),nuclear translocation activity
1,COc1ccccc1OP(C)(=O)Nc1ccc(C)cc1 (stereo unspecified),inactive: -3.9%
